Reference: patent US20170296521A1, “PHARMACEUTICAL COMPOSITION FOR SUPPRESSION OF THROMBOEMBOLISM AFTER STENT PLACEMENT” (priority 2014, published 2017)

Chains of the proteins cited; added tags and fusions are not shown. Residues count along the entry.
UniProt P00742, 41-179 partner limits assumed: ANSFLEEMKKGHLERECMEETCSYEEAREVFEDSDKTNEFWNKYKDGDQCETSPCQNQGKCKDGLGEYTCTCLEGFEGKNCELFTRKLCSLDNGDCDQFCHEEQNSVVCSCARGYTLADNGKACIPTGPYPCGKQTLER
UniProt P00742, 235-488 limits assumed: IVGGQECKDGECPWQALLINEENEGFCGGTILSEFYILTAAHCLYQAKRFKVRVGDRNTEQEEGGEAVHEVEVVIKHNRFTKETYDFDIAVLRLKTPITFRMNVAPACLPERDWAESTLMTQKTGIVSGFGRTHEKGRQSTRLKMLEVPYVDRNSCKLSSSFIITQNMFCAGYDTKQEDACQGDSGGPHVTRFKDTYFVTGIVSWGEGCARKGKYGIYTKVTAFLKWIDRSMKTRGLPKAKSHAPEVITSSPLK

Molecular target: human FXa (Homo sapiens, UniProt P00742)
Conditions: Example 1, FIG. 1B; 0.3, 1 or 3 mg/kg orally
Procedure: A 0.5% MC solution (10 mL/kg or 15 mL/kg) was orally administered to a control group. […] The collected thrombus-attached stents were stored at −20° C. until protein quantification. […] Then, the anti-FXa activity in the plasma was measured.

## CN1CCc2nc(C(=O)N[C@@H]3C[C@@H](C(=O)N(C)C)CC[C@@H]3NC(=O)C(=O)Nc3ccc(Cl)cn3)sc2C1.Cc1ccc(S(=O)(=O)O)cc1 [edoxaban, N-(5-chloropyridin-2-yl)-N′-[(1S,2R,4S)-4-(dimethylcarbamoyl)-2-(5-methyl-4,5,6,7-tetrahydro[1,3]thiazolo[5,4-c]pyridine-2-carboxamido)cyclohexyl]oxamide]
  anti-FXa activity in the plasma after oral administration: dose-dependent (P<0.001) and significant
